This note sets out measurements from article PMC10041147 (RSC Advances, 2023).

The target in this assay is Concanavalin A (ConA) (Canavalia ensiformis, UniProt P02866). The class given is binding. The settings on record: ConA sensor.

Read-outs that look alike come from different tables or passages of the source.

mannan [mannan (4)]: the Kd (read-out: K d from CV, cyclic voltammetry) is 10 ± 5 µM and the Kd (read-out: K d from DPV, differential pulse voltammetry) is 3 ± 1 µM.
